Laboratory results: ChEMBL document CHEMBL1158637, “Orally bioavailable dual MMP-1/MMP-14 sparing, MMP-13 selective alpha-sulfone hydroxamates” (Bioorg Med Chem Lett, 2010)

Experiments:
[1] = target: Matrix metalloproteinase-14 (Homo sapiens, UniProt P50281); assay: Inhibition of MMP14
[2] = target: Matrix metalloproteinase-9 (Homo sapiens, UniProt P14780); assay: Inhibition of MMP9

IC50 [1] [nM] | IC50 [2] [nM] | SMILES
> 10000 | 2500 | O=C(NO)C1(S(=O)(=O)c2ccc(N3CCC(c4cccc5ccccc45)CC3)cc2)CCOCC1
> 10000 | 350 | O=C(NO)C1(S(=O)(=O)c2ccc(N3CCC(c4ccc(Cl)cc4)CC3)cc2)CCOCC1
2860 | 163 | COc1cccc(N2CCN(c3ccc(S(=O)(=O)C4(C(=O)NO)CCOCC4)cc3)CC2)c1
> 10000 | > 10000 | COc1ccc(C2CCN(c3ccc(S(=O)(=O)C4(C(=O)NO)CCOCC4)cc3)CC2)c(OC)c1
> 10000 | > 10000 | COc1ccc(C2CCN(c3ccc(S(=O)(=O)C4(C(=O)NO)CCOCC4)cc3)CC2)c(C)c1
8220 | 682 | Cc1ccc(N2CCN(c3ccc(S(=O)(=O)C4(C(=O)NO)CCOCC4)cc3)CC2)cc1
> 10000 | 2860 | Cc1ccccc1N1CCN(c2ccc(S(=O)(=O)C3(C(=O)NO)CCOCC3)cc2)CC1
> 10000 | > 10000 | O=C(NO)C1(S(=O)(=O)c2ccc(N3CCC(c4ccccc4O)CC3)cc2)CCOCC1
> 10000 | 265 | O=C(NO)C1(S(=O)(=O)c2ccc(N3CCC(c4ccccc4)CC3)cc2)CCOCC1
> 10000 | 6700 | COc1ccccc1C1CCN(c2ccc(S(=O)(=O)C3(C(=O)NO)CCOCC3)cc2)CC1
> 10000 | 722 | COc1ccc(N2CCN(c3ccc(S(=O)(=O)C4(C(=O)NO)CCOCC4)cc3)CC2)cc1

Further lines, the compound ahead of its results:

SMILES | IC50 [1] [nM] | IC50 [2] [nM]
O=C(NO)C1(S(=O)(=O)c2ccc(N3CCN(c4ccc(C(F)(F)F)cc4)CC3)cc2)CCN(C2CC2)CC1 | > 10000 | > 10000
C#CCN1CCC(C(=O)NO)(S(=O)(=O)c2ccc(Sc3ccccc3)cc2)CC1 | 19 | –
O=C(NO)C1(S(=O)(=O)c2ccc(N3CCN(c4ccc(Cl)cc4)CC3)cc2)CCOCC1 | 5000 | 270
O=C(NO)C1(S(=O)(=O)c2ccc(N3CCN(c4ccccc4Cl)CC3)cc2)CCOCC1 | > 10000 | 2090
COc1ccc(N2CCN(c3ccc(S(=O)(=O)C4(C(=O)NO)CCN(C5CC5)CC4)cc3)CC2)cc1 | > 10000 | 729
O=C(NO)C1(S(=O)(=O)c2ccc(N3CCN(c4ccccc4)CC3)cc2)CCOCC1 | > 10000 | 450
O=C(NO)C1(S(=O)(=O)c2ccc(N3CCN(c4ccc(C(F)(F)F)cc4)CC3)cc2)CCOCC1 | > 10000 | 5000
O=C(NO)C1(S(=O)(=O)c2ccc(N3CCN(c4ccccc4F)CC3)cc2)CCOCC1 | > 10000 | 356
